According to patent US10428043B2, “Green oxidation catalytic system” (TRUSTEES OF BOSTON UNIVERSITY, priority 2014, dated 2019):

Assay: Solubility
Type: physicochemical
Conditions: in methanol

In the case of “mono-sodium salt of α-ketoglutarate [[α-KG][Na], reference compound]”, the solubility is reported as roughly 10 mM.
